Target: T1, HER2 protein (R&D Systems, Inc., catalog number: 1129-ER) (UniProt P04626, in part)
T1 construct: Bought protein coated on the ELISA plate
Assay: ELISA, HER2 protein coated, His-tagged Fab titrated, HRP anti-His detection
Source text: HER2 protein (R&D Systems, Inc., catalog number: 1129-ER) was used as an antigen for a human anti-HER2 antibody. Humulin R U-100 (Eli Lilly and Company) was used as an antigen for a mouse anti-insulin antibody. CD80 protein (R&D Systems, Inc., catalog number: 140-B1) was used as an antigen for a rabbit anti-CD80 antibody. As antibodies for detection, the wild type and the heavy-chain mutant type (10-110) of the humanized anti-HER2 antibody (Fab), the wild type and the heavy-chain mutant type (9-109) of the mouse anti-insulin antibody (Fab), and the wild type and the heavy-chain mutant type (9-109) of the rabbit anti-CD80 antibody (Fab) were used. A histidine tag was added to these antibodies for detection (Fabs). Each antibody for detection was stepwise diluted with 1% BSA-containing PBS to obtain a plurality of Fab solutions with different concentrations.
Each antigen was diluted with PBS (pH 7.4) to prepare a solution of each antigen. The solution of each antigen was added to wells of a MaxiSorp (trademark) flat bottom plate (Thermo Fisher Scientific, Inc.). The mixture was allowed to stand overnight at 4° C. The antigen solution was removed, and a blocking solution (1% BSA-containing PBS) was added to each well to perform blocking. […] After washing, a solution of an ABST substrate (Thermo Fisher Scientific Inc.) was added to each well, and absorbance at 450 nm was measured.

B1: heavy-chain mutant type (10-110) of the humanized anti-HER2 antibody (Fab) (Fab, V domains shown)
VH: [letters of about 120 residues left out]
VL: DIQMTQSPSSLSASVGDRVTITCRASQDVNTAVAWYQQKPGKAPKLLIYSASFLYSGVPSRFSGSRSGTDFTLTISSLQPEDFATYYCQQHYTTPPTFGQGTKVEIKR
notes: Tested as a Fab with an added histidine tag; The light chain is unmodified
binding result: binds

From patent US20210347910A1 (SYSMEX, published 2021)
